Data reported in EP1330253B1, “USE OF BIOACTIVE FRACTION FROM COW URINE DISTILLATE ('GO MUTRA') AS A BIO-ENHANCER OF ANTI-INFECTIVE, ANTI-CANCER AGENTS AND NUTRIENTS” (Council of Scientific and Industrial Research, priority 2000, dated 2002).

Details: with the sample; goat intestine; within 2 hours, keeps increasing upto 4 hours

**Q.** For Vitamin B-12, which “enhancement of bioavailability across the mammalian gut membrane” value is on record?
**A.** enhancement of bioavailability
